Columns and labels:
Conditions in all cases: 72 h
Calu-3 [1] = assay: cell viability relative to DMSO; higher = less toxic
HepG2 [2] = assay: as above
Caco-2 [3] = assay: as above
U2OS [4] = assay: as above
HepG2 [5] = assay: relative viability EC50 (midpoint between 100% and the lowest measured viability); higher = less toxic
Caco-2 [6] = assay: as above
U2OS [7] = assay: as above
Calu-3 [8] = assay: drug sensitivity score (DSS) for viability; higher = more toxic; extreme values may be limits of the assay
HepG2 [9] = assay: as above
Caco-2 [10] = assay: as above
U2OS [11] = assay: as above

N/C(=N/CCc1ccc(I)cc1)SCCCc1cnc[nH]1 [iodophenpropit]
cell viability [%]
Conditions | 1 nM | 10 nM | 100 nM | 1000 nM | 10000 nM
Caco-2 [3] | 100 | 99.1 | 99.6 | 95.4 | 99
Calu-3 [1] | 94.7 | 103 | 100 | 102 | 69.3
HepG2 [2] | 103 | 109 | 99.1 | 101 | 48.2
U2OS [4] | 99.9 | 94.4 | 102 | 97.9 | 86.1

Conditions | drug sensitivity score | relative viability EC50 [µM]
Caco-2 [6] | – | > 10
Caco-2 [10] | 0 | –
Calu-3 [8] | 1.2 | –
HepG2 [5] | – | 3.29
HepG2 [9] | 2.6 | –
U2OS [7] | – | > 10
U2OS [11] | 0.3 | –

From the supplement of paper PMC13380429
